# Compounds with a hit are over-represented: about 0.34% of the library has one in this group of screens.
# miR-21 reporter: miR-21 reporter, rising signal. 340,000 tested, under 10 active. Potency, µM (highest dose often 38.3 µM), for the others: at the highest dose reporter change, positive = more light. HeLa miR-21 FLuc reporter, luciferase, 48 h. AID 2288; active = well fitted rising curve with a large enough effect; inconclusive = small, poorly fitted or top-dose-only effect; inactive = no such curve, though single readings can be large or run the other way;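 further: % of control where 0% means no effect; miR-21 action dims this reporter so a rising signal means less miR-21 action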
#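 HeLa miR-21-FLuc reporter line, endogenous miR-21; 2000 cells/well in DMEM/10% FBS; compound titration up to ~40uM final, 48 h, 37 degree Celsius; luciferase detection reagent, 15 min lysis, CCD luminescence.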
# Vif-A3G inh: Vif-A3G binding inhibition; Q9HC16; AID 602310; HeLa A3G-eYFP + Vif (tagged APOBEC3G with the HIV-1 protein that degrades it), YFP fluorescence, overnight; Potency, µM (series often up to 46.1 µM), inactives show at the highest dose activity, negative = active, actives largely listed as inhibitors; 410,000 compounds, 0.076% hits; note: potency is the fitted concentration of half-maximal effect; % is set by controls: 0 for no effect and ±100 for the full control effect; nearly all actives have a fitted effect of over 60% in size
#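 HeLa cells stably expressing Vif and C-terminally eYFP-tagged A3G, seeded overnight at 37 deg C, then exposed to compound by pintool overnight at 37 deg C. Rise in yellow fluorescence (Ex 488/Em 500-530, Acumen) marks blocked Vif-driven A3G degradation.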
# Vif-A3F inh: blocks the Vif interaction with APOBEC3F; HeLa A3F-eYFP + Vif (tagged APOBEC3F with the HIV-1 protein that degrades it), YFP fluorescence increase; Potency, µM (top dose mostly 46.1 µM), without a hit: at the highest dose activity, negative = active; 390,000 compounds, 0.2% hits; note: potency is the fitted concentration of half-maximal effect; % of control where 0% means no effect; nearly all actives have a fitted effect of over 65% in size
#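 HeLa cells stably expressing A3F-eYFP plus Vif, plated and incubated overnight at 37 deg C, then exposed to compounds overnight at 37 deg C. Blocked degradation read as raised yellow fluorescence (Ex 488/Em 500-530).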
# Epigenetic reg: derepresses silenced GFP reporter in murine cells; 280,000 compounds, 0.2% hits; murine LDR cells, GFP reporter derepression, 30 h; Potency, µM (top dose mostly 53.9 µM), for inactives: at the top dose GFP activation, most hits filed as activators; note: potency is the fitted concentration of half-maximal effect; % of control where 0% means no effect; nearly all actives have a fitted effect of over 60% in size
#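 Derepression of a silenced CMV-GFP reporter in murine LDR cells is scored by enumerating GFP-positive cells with a laser-scanning microplate cytometer after 30 hours of treatment at 37 C.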
# Active calls of the source: *; ? = inconclusive; . = not tested or not shown. Calls come from the whole dose curve; as a rule, active = well fitted curve in the direction sought with a large enough effect; inconclusive = small, poorly fitted or top-dose-only effect, or another doubt; inactive = no such curve, though single readings can be large; an effect the other way counts as inactive or inconclusive.
# Every second line gives: Vif-A3F inh | Vif-A3G inh | miR-21 reporter | Epigenetic reg
1) O=C(OCCF)N1CCN(/[N+]([O-])=N/Oc2ccc([N+](=O)[O-])cc2[N+](=O)[O-])CC1
  . | -3.0% | . | .
2) CCCC[C@@H](C=O)NC(=O)[C@H](CC(C)C)NC(=O)[C@H](CC(C)C)NC(C)=O
  . | . | . | 11.2µM*
3) CSCC[C@H](C=O)NC(=O)[C@H](CC(C)C)NC(=O)[C@H](CC(C)C)NC(C)=O
  . | . | . | 2.8%
4) CC(C)(C)n1ncc2c(=O)n(Cc3cccc(OC(F)(F)F)c3)cnc21
  . | 2.0% | . | .
5) C[n+]1ccc(/C=C/c2cc[n+](C)c3ccccc23)c2ccccc21
  . | 12.6µM* | . | .
6) C=CCSc1nnc(C)c(/C=C/Nc2ccc(Cl)cc2)n1
  25.1µM* | ? | -10.6% | ?
7) CSc1nnc(C)c(/C=C/Nc2ccc(F)cc2F)n1
  0.3% | 1.0% | 0.9% | -0.4%
8) Cc1cccc(NC(=O)Cn2c(=O)n(Cc3ccccc3)c(=O)c3oc4ccccc4c32)c1C
  -6.6% | -5.7% | -0.9% | 1.3%
9) Cc1cc(C)cc(NC(=O)CCS(=O)(=O)c2ccc3c(c2)oc(=O)n3C)c1
  2.7% | -1.0% | -0.1% | -0.4%
10) COc1cc(C(=O)NCC(=O)N2CCN(S(=O)(=O)c3cc(C)ccc3C)CC2)cc(OC)c1OC
  -14.6% | 6.31µM* | 17.3% | .
11) CCc1nn2c(=O)cc(COC(=O)c3ccc(NC(=O)CCc4ccccc4)cc3)nc2s1
  -3.5% | 4.0% | 1.1% | -1.9%
12) N#Cc1cc2ccccc2nc1SCC(=O)Nc1ccccc1N1CCOCC1
  25.1µM* | ? | -1.1% | -0.9%
13) NNC(=O)c1oc2nc(-c3cccs3)cc(-c3ccco3)c2c1N
  . | . | 13.8% | .
14) Cc1ccc(-c2cc(-c3ccco3)c3c(N)c(C(=O)NN)oc3n2)cc1
  11.2µM* | ? | 17.3% | 10.9%
15) O=C1Nc2ccccc2/C1=C/c1cccnc1
  -2.5% | 0.8% | 21.7% | -1.1%

# Ordered by value in miR-21 reporter (low to high): 4 from the list above
cpd | SMILES | Vif-A3F inh | miR-21 reporter | Epigenetic reg
6 | C=CCSc1nnc(C)c(/C=C/Nc2ccc(Cl)cc2)n1 | 25.1µM* | -10.6% | ?
8 | Cc1cccc(NC(=O)Cn2c(=O)n(Cc3ccccc3)c(=O)c3oc4ccccc4c32)c1C | -6.6% | -0.9% | 1.3%
11 | CCc1nn2c(=O)cc(COC(=O)c3ccc(NC(=O)CCc4ccccc4)cc3)nc2s1 | -3.5% | 1.1% | -1.9%
13 | NNC(=O)c1oc2nc(-c3cccs3)cc(-c3ccco3)c2c1N | . | 13.8% | .

# Only Vif-A3F inh (two entries from above):
entry | smiles | Vif-A3F inh
14 | Cc1ccc(-c2cc(-c3ccco3)c3c(N)c(C(=O)NN)oc3n2)cc1 | 11.2µM*
15 | O=C1Nc2ccccc2/C1=C/c1cccnc1 | -2.5%

# (more compounds)
# Every second line gives: Vif-A3F inh | Vif-A3G inh | miR-21 reporter | Epigenetic reg
16) O=C1Nc2ccccc2/C1=C/c1cnc(-c2ccccc2)[nH]1
  -12.6% | -8.0% | -55.4% | 22.4µM*
17) Cc1ccc(CCNC(=O)CCS(=O)(=O)c2cc3c(cc2Cl)NC(=O)CO3)cc1
  2.4% | -1.3% | 2.0% | 0.0%
18) C(=C\c1ccnc2ccccc12)/c1ccc(N(Cc2ccccc2)Cc2ccccc2)cc1
  . | -0.3% | . | .
19) CCCCCCN1C=CC(=C/C=C(\C#N)C(=O)OCC)C=C1
  ? | 4.1% | -2.1% | 10µM*
20) CCCN1C=CC(=C/C=C(\C#N)C(=O)OCC)C=C1
  . | . | -26.0% | ?
21) CCCN1C=CC(=CC=C(C#N)C#N)C=C1
  ? | 12.6µM* | -7.8% | 0.9%
22) C=CCN1C=CC(=CC=C(C#N)C#N)C=C1
  ? | ? | -16.5% | -2.5%
23) CC1=CN2C(=N)/C(=C/c3ccc([N+](=O)[O-])o3)C(=O)N=C2S1
  ? | 22.4µM* | ? | ?
24) CC1=CN2C(=N)/C(=C/c3ccco3)C(=O)N=C2S1
  -15.8% | -6.6% | -36.3% | -1.9%
25) COC(=O)c1ccc(C(=O)OC)c(NC(=O)c2c(-c3ccccc3)noc2C)c1
  -1.3% | ? | 2.4% | 4.2%
26) CC(=O)Nc1ccc2nc(NC(=O)c3ccc([N+](=O)[O-])o3)sc2c1
  5.5% | 12.6µM* | 11.8% | .
27) COc1ccc(CCNc2ncnc3nc[nH]c23)cc1
  . | 2.7% | . | .
28) COc1ccc2nc(SCC(=O)Nc3ccc4sc(C)nc4c3)c(C#N)cc2c1
  22.4µM* | -6.5% | -9.7% | 3.55µM*
29) Cc1ccc(C)c(NC(=O)CSc2ncc3c(n2)-c2cc(Cl)ccc2N(Cc2ccccc2F)S3(=O)=O)c1
  -7.3% | 0.4% | -3.5% | 10.2%
30) CC1(C)CC(=O)C(C=Nc2cc(C(=O)c3ccccc3)ccc2N)=C(O)C1
  28.2µM* | -23.2% | -20.6% | 7.6%

# Single values from the entries so far.
# For miR-21 reporter, compound 29 is entered as -3.5%
# For miR-21 reporter, compound 21 is entered as -7.8%

# Continuation:
# Every second line gives: Vif-A3F inh | Vif-A3G inh | miR-21 reporter | Epigenetic reg
31) C=C1C=C(C(F)F)n2ncc(C(=O)Nc3cccc(CC)c3)c2N1
  . | 3.2% | . | .
32) CCC(C(=O)NCCc1cc(OC)ccc1OC)n1nc(C)c2sc3ccccc3c2c1=O (stereo not given)
  -5.5% | -9.0% | -15.8% | 12.6µM*
33) Cc1cc(C(=O)CCl)c(C)n1Cc1ccco1
  0.5% | ? | 17.9% | 12.6µM*
34) Cc1ccccc1CN1c2ccccc2-c2nc(SCC(=O)NCCc3ccccc3)ncc2S1(=O)=O
  -0.3% | -1.7% | -0.9% | 22.4µM*
35) Cc1ccc(C)c(NC(=O)CSc2ncc3c(n2)-c2ccccc2N(Cc2ccccc2C)S3(=O)=O)c1
  -9.3% | -1.0% | 4.4% | ?
36) C[n+]1c(/C=C/c2ccc(N)cc2)sc2ccccc21
  . | 1.6% | . | .

# Screening results from PubChem.
